Measurements: PubChem BioAssay AID1471 (National Center for Advancing Translational Sciences (NCATS), 2008)
Where “and” joins values, the source holds several entries; their conditions need not be identical. Identical values can stand only once. The list shows a part of the results, in another mix than the full data. Calls of active or inactive are those of the source. Calls come from the whole dose curve; as a rule, active = well fitted activation curve with a large enough effect; inconclusive = small, poorly fitted or top-dose-only effect; inactive = no such curve, though single readings can be large or run the other way.

experiment: qHTS Multiplex Assay to Identify Dual Action Probes in a Cell Model of Huntington: Cytoprotection (ATP); conditions: PC12 HTT-Q103 induced, ATP luminescence, 40 h; at 56.4 µM (top of the series) unless noted;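 note: toxic huntingtin expression switched on by the ecdysone agonist tebufenozide; % of control where 0% means no effect; nearly all actives have a fitted effect of over 45% in size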
Description: NIH Chemical Genomics Center [NCGC]
NIH Molecular Libraries Probe Production centers Network [MLPCN]
Assay Submitter (PI): Wei Zheng
Huntington's disease is a neurodegenerative disorder caused by a trinucleotide repeat expansion in Exon 1 of the Huntingtin gene. The CAG trinucleotide encodes glutamine and polyglutamine expansions cause cell death in selective areas of the brain. Huntington polyglutamine repeats have the tendency to form aggregates which are observable in later stages of the disease. The exact nature of the aggregates, whether toxic, protective, or insignificant, is unclear.
A stable PC12 cell line containing a gene fusion of Exon 1 of the Huntingtin gene linked to GFP under the control of the inducible ecdysone promoter were used as the cell-based model of Huntington Disease for high throughput screening. Exon 1 of the Huntingtin gene contained an expansion of 103 polyglutamines (Q103) which, when expressed, caused cell death and distinct, bright GFP aggregates. The amount of cell death and the size and intensity of GFP aggregates increased over time and induction level. The cell death were quantified with a measurement of ATP content in the cells. A maximal 40-50% of cell death was observed when the Huntington gene was induced in this cell line.
We optimized this assay in a homogeneous 1536 well format. A quantitative high throughput screen (qHTS) was conducted on the PC12 cells which were induced to express the toxic fusion construct. Small molecules which prevented cell death were identified by using a luminescent ATP quantification method (Perkin Elmer's ATPlite).
PC12 cells stably containing a construct with an ecdysone inducible promoter expressing GFP fused to the exon 1 of HTTQ103 (Huntington protein which containing a 103 ployglutamine expansion) were used.
NCGC Assay Protocol Summary:
Sequence, Parameter, Description
1, Reagent, 5 uL 1500 cells/well 1536 TC treated White clear bottom plate
2, Compound, 23 nL Tebufenozide inducer (100 nM final) to all columns
3, Compound, 23 nL 40 uM to 0.5 nM Libraries
5, Reagent, 5 ul ATPLite cell death assay reagent
6, Detector, 4 sec integration with a Viewlux Luminescent
Media consisted of phenol red free DMEM + 5% equine serum (Hyclone # SH30072.03 ), 5% supplemented Bovine Calf Serum (Hyclone # SH30074.03 ), 1x pen/strep, no G418
Control columns: 1 = DMSO, 2= 2 uM teb dilns (1:1), 4 = 100 nM Teb inducer. Sample columns received 100 nM Teb.

Compound | cytoprotection (ATP increase)
COc1ccc(OP(C)(=O)Nc2cccc(F)c2)cc1 (stereo unspecified) | inactive: -9.43%
COc1ccccc1OP(C)(=O)Nc1cc(Cl)ccc1C (stereo unspecified) | inactive: 24.9% [at 10 µM]
N1=C(c2nnc(-c3nn[nH]n3)nn2)NNN1 | inactive: 9.36% [at 10 µM]
CP(=S)(Nn1cnnc1)Oc1ccccc1 (stereo unspecified) | inactive: 0.434%
CP(=O)(Nc1ccccc1Br)Oc1ccccc1 (stereo unspecified) | inactive: 7.57% [at 10 µM]
COc1ccccc1OP(C)(=O)Nc1ccccc1 (stereo unspecified) | inactive: 15.2%
CP(=O)(Oc1ccccc1)OC(c1ccccc1)C(F)(F)F (stereo unspecified) | inactive: 15.1% [at 10 µM]
Cc1cccc(C)c1OP(C)(=O)Nc1ccc(SC(F)(F)F)cc1 (stereo unspecified) | inactive: 26.4% [at 10 µM]
CP(=O)(Nc1ccc(SC(F)(F)F)cc1)Oc1ccc(Cl)cc1 (stereo unspecified) | inactive: -3.36% [at 10 µM]
Cc1cc(C)cc(OP(C)(=O)Nc2ccc(SC(F)(F)F)cc2)c1 (stereo unspecified) | inactive: -24.6% [at 10 µM]
CCc1ccc(OP(C)(=O)N2CCN(c3ccc([N+](=O)[O-])cc3)CC2)cc1 (stereo unspecified) | inactive: 5.97% [at 10 µM]
CP(=O)(NC(=O)Nc1ccccc1)Oc1ccccc1 (stereo unspecified) | inactive: 18.7%
CN(C)CCS | inactive: 3.02%
CCOC(=O)c1ccc(NP(C)(=O)Oc2ccc(OC)cc2)cc1 (stereo unspecified) | inactive: 33.5% [at 10 µM]
CCOP(C)(=S)SCC(=O)NC(C)C(=O)O (stereo unspecified) | inactive: -23.6%
CP(=O)(Nc1ccccn1)Oc1ccc(Cl)cc1 (stereo unspecified) | inactive: -14.1%

Compound | cytoprotection (ATP increase)
O=[N+]([O-])c1cc([N+](=O)[O-])c(-n2nnc3ccccc32)c([N+](=O)[O-])c1 | inactive: -8.97% [at 10 µM]
Cc1nc2ccc3ccccc3c2s1.O=[N+]([O-])c1cc([N+](=O)[O-])c(O)c([N+](=O)[O-])c1 | inactive: -3.4%
O=[N+]([O-])c1cc([N+](=O)[O-])c(Nc2nnnn2CCO)c([N+](=O)[O-])c1 | inactive: -2.09% [at 10 µM]
COc1ccccc1OP(C)(=O)Nc1c(C)cccc1C (stereo unspecified) | inactive: 0.801%
CN1CCCCC1COC(=O)C1(O)c2ccccc2CCc2ccccc21 (stereo unspecified) | inactive: 5.93% [at 0.074 µM]
CCCOc1ccc(NP(C)(=O)Oc2ccc(Cl)cc2)cc1 (stereo unspecified) | inactive: -8.71% [at 10 µM]
O=[N+]([O-])c1cccc([N+](=O)[O-])c1 | inactive: 11% and inactive: -25%
CC1=NCCc2c1[nH]c1ccccc21.O=[N+]([O-])c1cc([N+](=O)[O-])c(O)c([N+](=O)[O-])c1 | inactive: -7.25% [at 10 µM]
Cc1ccc([N+](=O)[O-])cc1[N+](=O)[O-] | inactive: -2.04%
COc1ccccc1OP(C)(=O)Nc1cccc(Br)c1 (stereo unspecified) | inactive: -25.8% [at 10 µM]
CCOC(=O)c1ccc(NP(C)(=O)Oc2cc(C)cc(C)c2)cc1 (stereo unspecified) | inactive: 14.2% [at 10 µM]
Cc1cc(C)cc(OP(C)(=O)Nc2ccc(C)cc2C)c1 (stereo unspecified) | inactive: 5.42% [at 10 µM]
Cc1ccc(C)c(NP(C)(=O)Oc2ccccc2)c1 (stereo unspecified) | inactive: -6.81%
CP(=O)(Nc1cccc(Br)c1)Oc1ccccc1 (stereo unspecified) | inactive: 42.5% [at 10 µM]
Cc1cc(C)cc(OP(C)(=O)Nc2ccccn2)c1 (stereo unspecified) | inactive: 1.93%
